# Test system: DNA (plasmid 2959 bp)
# Settings: DNA preincubated with increasing quantities in DMSO before adsorption; FIG. 8
structure (smiles),measurement,value
CN(N=O)C(=N)N[N+](=O)[O-],genotoxicity (repair ratio vs dose),dose-dependent

# — patent US6261767A, “Method for the qualitative and quantitative detection of DNA damage” (Societe Francaise de Recherches et d'Investissements (SFRI), priority 1995, dated 2001)
